GIV-Gai inh – inhibitors of GIV GBA-motif binding to rat Galpha-i3. 210,000 tested, 0.42% active. percent of control (FP), % (concentration not given with the values). AID 1224905. Galpha-i3/FITC-GIV peptide fluorescence polarization, 90 min; active compounds read low; scaled: aluminum fluoride 0%, vehicle 100%;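 active = replicate mean at 85% of control or lower, very high polarization wells dropped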;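 note: wells of about 15 µL received 100 nL stock; the first replicate is given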
HCMV UL50-53 inh – cytomegalovirus nuclear egress complex inhibition; HTRF UL50-UL53 interaction, normalized percent inhibition; inhibition, % (concentration not given with the values); 0.15% of 190,000 active; AID 1918969; in the data active = inhibition above about 27%, passing the limit was not always enough
GIV-Gai FP conf – confirmation of inhibitors of GIV binding to rat Galpha-i3; shares compounds with GIV-Gai inh; 38% of 580 active; fluorescence polarization, mP at 100 µM; AID 1259350; FITC-GIV peptide binding to Galphai3, fluorescence polarization; active compounds read low;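 active = inhibition score of 15 or more, meaning 100 minus mean polarization as percent of control over three replicates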;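 note: lower mP means peptide displaced from Galphai3 so more inhibition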
GIV Gai AS conf – confirmation of inhibitors of GIV binding to human Galpha-i3; shares compounds with GIV-Gai inh; AlphaScreen Galphai3-GIV binding, purified proteins, 90 min; active compounds read low; AlphaScreen counts at 100 µM; 39% of 580 active; AID 1259351;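 active = inhibition score at or above a set limit, where the score is 100 minus the three-replicate mean percent of control signal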
Active calls of the source: *; . = no result given; ! = not confirmed by another sample. This is one part of a sample in which hits are shown more often than they occur.

Sample of the layout, two compounds:
SMILES | GIV-Gai inh | HCMV UL50-53 inh | GIV-Gai FP conf | GIV Gai AS conf
CCSc1nc2ncn(CC(=O)Nc3cccc(Cl)c3)c(=O)c2s1 | 103.5 | -16.9 | . | .
CCOc1ccc(-c2nonc2NC(=O)C(C)Oc2ccc(F)cc2)cc1C (stereo not given) | 84.2* | -16.1 | 65.8 | 40925

All compounds of this part (from the top)
SMILES | GIV-Gai inh | HCMV UL50-53 inh | GIV-Gai FP conf | GIV Gai AS conf
CCSc1nc2ncn(CC(=O)Nc3cccc(Cl)c3)c(=O)c2s1 | 103.5 | -16.9 | . | .
CCOc1ccc(-c2nonc2NC(=O)C(C)Oc2ccc(F)cc2)cc1C (stereo not given) | 84.2* | -16.1 | 65.8 | 40925
CCOc1ccc(-c2nonc2NC(=O)C(C)Oc2ccc(CC)cc2)cc1C (stereo not given) | 104.6 | 0.2 | . | .
O=C(CSC(=O)c1ccccc1)NC1CCCCC1 | . | 2.8 | . | .
CCCCN(CC)c1ncc(NS(=O)(=O)CC)cc1C(=O)O | 109.9 | -38.9 | . | .
CCN(CCN(C)C)c1ncc(NS(=O)(=O)CC)cc1C(=O)O | 70.8* | -24.4 | 34.2* | 21018*
Cc1ccc(CNc2ccc(O)cc2)s1 | 75.1* | 21.3 | 50.2* | 9116*
Oc1ccc(NCc2cccs2)cc1 | 103.9 | -10.2 | . | .
O=C(/C=C/c1ccco1)/C=C/c1ccco1 | 45.3* | . | 61.3 | 42048
O=C(/C=C/c1ccccc1)/C=C/c1ccco1 | 119.7 | 9.9 | . | .
Cc1ccc(CN2CCN(CC(=O)Nc3ccc(C)cn3)C(=O)C2=O)cc1 | 106.8 | -6.9 | . | .
O=C(O)c1cccc(NC(=O)c2ccccc2C(=O)O)c1 | 99.7 | -13.4 | . | .
O=C(O)c1ccc(C(=O)Nc2cccc(Cl)c2)c(C(=O)O)c1 | 64.2* | -39.7 | 62.4* | 34772
Nc1nc(C(F)(F)F)nn1C(=O)c1ccc(Br)cc1 | . | -3.3 | . | .
CC(=O)NC1=CC(=O)c2nonc2C1=O | 4.4* | 85.9* | 26.4* | 7791*
COc1nonc1NC(C)=O | . | 3.0 | . | .
Cc1ccc(NC(=O)N2CCCN(c3ccc(=O)n(-c4ccc(Cl)cc4)n3)CC2)c(Cl)c1 | 106.0 | -15.8 | . | .
COC(=O)c1ccsc1NC(=O)c1cccc(S(C)(=O)=O)c1 | 105.7 | -32.8 | . | .
COC(=O)c1ccsc1NC(=O)c1cccc(C)c1 | 65.4* | -26.2 | 69.2 | 35067
O=C(Cc1ccc2c(c1)OCO2)N1CCC(n2nc(-c3ccccc3)oc2=O)CC1 | 128.6 | -12.8 | . | .
CCn1c(COC(=O)Cn2c(=O)oc3ccccc32)nc2cc(S(=O)(=O)N(C)C)ccc21 | . | 0.8 | . | .
Cc1ccc(/C=C2\SC(=O)NC2=O)o1 | . | -55.3 | . | .
Cc1ccc(/C=C2/SC(=O)NC2=S)o1 | 79.8* | . | 56.8* | 2262*
Cc1nnsc1C(=O)NC1CCCCCC1 | . | 1.0 | . | .
O=C(NC1CCCCC1)SCc1ccccc1 | 97.6 | 41.2 | . | .

Taken from above:
COC(=O)c1ccsc1NC(=O)c1cccc(S(C)(=O)=O)c1 in HCMV UL50-53 inh has -32.8
Cc1ccc(/C=C2\SC(=O)NC2=O)o1 in HCMV UL50-53 inh has -55.3
O=C(/C=C/c1ccco1)/C=C/c1ccco1 in GIV Gai AS conf has 42048
O=C(Cc1ccc2c(c1)OCO2)N1CCC(n2nc(-c3ccccc3)oc2=O)CC1 in HCMV UL50-53 inh has -12.8
Cc1ccc(/C=C2/SC(=O)NC2=S)o1 in GIV-Gai FP conf has 56.8*

Continuation:
SMILES | GIV-Gai inh | HCMV UL50-53 inh | GIV-Gai FP conf | GIV Gai AS conf
Cc1ccccc1NC(=O)c1sc2nc(-c3cc4ccccc4oc3=O)[nH]c(=O)c2c1C | 70.9* | 5.7 | 38.1* | 23058
Cc1ccccc1NC(=O)c1cc2ccccc2o1 | 100.0 | . | . | .
COCC(C)NC(=O)c1ccccc1NS(C)(=O)=O (stereo not given) | 105.2 | -34.0 | . | .
CCOC(=O)c1c(NC(=O)C2CC2)sc2c1CCC2 | . | -1.3 | . | .
CCOC(=O)C1=C(CSc2nnnn2-c2ccccc2)NC(=O)NC1C (stereo not given) | . | -26.0 | . | .
Cc1nc(-c2cccc(C(=O)Nc3cc(Cl)ccc3C)c2)no1 | 103.4 | -24.0 | . | .
COC(=O)c1c(-c2ccc(Cl)cc2)noc1N1CCN(C)CC1 | 99.1 | -26.7 | . | .
COC(=O)c1c(-c2ccc(Cl)cc2)noc1N1CCN(c2ccccc2F)CC1 | 71.4*! | -2.0 | 64.3 | 42746
Cc1csc(-c2csc(S(=O)(=O)Nc3ccc(C(C)C)cc3)c2)n1 | 96.1 | . | . | .
COC(=O)c1ccc(NC(=O)c2nn(C)c3c2CS(=O)(=O)c2ccccc2-3)cc1 | 86.0 | -16.2 | 83.2 | 37898
Cn1nc(C(=O)Nc2ccc(F)cc2)c2c1-c1ccccc1S(=O)(=O)C2 | 103.8 | 0.4 | . | .
Cc1cccc(-n2ncc3c2ncn2nc(COc4ccc(Cl)cc4)nc32)c1 | 94.4 | -13.5 | . | .
O=C1CCCC2=C1C1(O)C(=O)c3ccccc3C1(O)O2 (stereo not given) | 58.6* | 78.4* | 53.7* | 53411
Nc1ccc2c(c1)OC1(O)c3ccccc3C(=O)C21O (stereo not given) | . | -20.3 | . | .
CCOC(=O)c1c(S(=O)(=O)N2CCCC(C(=O)Nc3cccc(C)c3)C2)c(C)n(CC)c1C (stereo not given) | 93.7 | . | . | .
CCc1cccc(C)c1NC(=O)Cn1c(C(=O)OC)c(NC(C)=O)c2c(C)c(C)sc21 | 105.2 | -18.2 | . | .
NCCSc1ncc(-c2ccc(Cl)cc2)[nH]1 | 103.1 | -1.2 | . | .
CCOC(=O)c1ccccc1NC(=O)/C(C#N)=C/c1ccc(-c2ccc(Cl)cc2)o1 | 75.5* | -18.6 | 31.3* | 11443*
N#C/C(=C/c1ccc(-c2ccc(S(N)(=O)=O)cc2)o1)C(=O)Nc1cc(Cl)ccc1Cl | 75.4* | -15.3 | 79.8 | 30693
Cc1ccc(NC(=O)/C(C#N)=C\c2ccc(-c3ccc(Cl)cc3)o2)c(C)c1 | 106.2 | -51.0 | . | .
